Tests used:
[1] = biological target: PDE4B (Homo sapiens, UniProt Q07343); assay: In-vitro assay for PDE4 enzymes, real-time enzyme-coupled spectrophotometric assay, PDE4B Activity (Table 10); format: biochemical; settings: read-out: PDE4B Activity, hPDE4B
[2] = biological target: PDE4 (Homo sapiens, UniProt Q08499); assay: In-vitro assay for PDE4 enzymes, real-time enzyme-coupled spectrophotometric assay (Table 9); format: biochemical; settings: read-out: hPDE4D, human PDE4D, activity class

Chains of the proteins cited; added tags and fusions are not shown. Lines headed by an entry give the natural chain unless they say otherwise; changes in a name come on top.
UniProt Q07343: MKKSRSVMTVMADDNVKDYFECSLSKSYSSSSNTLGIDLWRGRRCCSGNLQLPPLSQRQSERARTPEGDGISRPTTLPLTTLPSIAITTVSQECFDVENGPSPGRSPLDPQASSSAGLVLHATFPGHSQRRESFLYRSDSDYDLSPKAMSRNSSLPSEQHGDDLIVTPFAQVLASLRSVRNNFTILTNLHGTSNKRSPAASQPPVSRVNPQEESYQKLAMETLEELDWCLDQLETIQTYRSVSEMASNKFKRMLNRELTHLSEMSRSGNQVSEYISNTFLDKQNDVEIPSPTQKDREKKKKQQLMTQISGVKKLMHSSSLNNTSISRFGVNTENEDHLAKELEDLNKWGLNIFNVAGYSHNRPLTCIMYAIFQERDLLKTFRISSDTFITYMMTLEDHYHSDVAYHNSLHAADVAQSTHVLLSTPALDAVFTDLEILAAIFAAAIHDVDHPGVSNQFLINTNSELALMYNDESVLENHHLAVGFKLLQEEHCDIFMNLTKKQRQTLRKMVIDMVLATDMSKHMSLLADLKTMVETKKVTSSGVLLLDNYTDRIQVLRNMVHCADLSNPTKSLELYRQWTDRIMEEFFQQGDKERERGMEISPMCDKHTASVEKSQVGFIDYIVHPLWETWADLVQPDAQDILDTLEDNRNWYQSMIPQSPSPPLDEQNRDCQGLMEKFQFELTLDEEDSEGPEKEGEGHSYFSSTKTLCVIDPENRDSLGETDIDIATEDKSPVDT
UniProt Q08499: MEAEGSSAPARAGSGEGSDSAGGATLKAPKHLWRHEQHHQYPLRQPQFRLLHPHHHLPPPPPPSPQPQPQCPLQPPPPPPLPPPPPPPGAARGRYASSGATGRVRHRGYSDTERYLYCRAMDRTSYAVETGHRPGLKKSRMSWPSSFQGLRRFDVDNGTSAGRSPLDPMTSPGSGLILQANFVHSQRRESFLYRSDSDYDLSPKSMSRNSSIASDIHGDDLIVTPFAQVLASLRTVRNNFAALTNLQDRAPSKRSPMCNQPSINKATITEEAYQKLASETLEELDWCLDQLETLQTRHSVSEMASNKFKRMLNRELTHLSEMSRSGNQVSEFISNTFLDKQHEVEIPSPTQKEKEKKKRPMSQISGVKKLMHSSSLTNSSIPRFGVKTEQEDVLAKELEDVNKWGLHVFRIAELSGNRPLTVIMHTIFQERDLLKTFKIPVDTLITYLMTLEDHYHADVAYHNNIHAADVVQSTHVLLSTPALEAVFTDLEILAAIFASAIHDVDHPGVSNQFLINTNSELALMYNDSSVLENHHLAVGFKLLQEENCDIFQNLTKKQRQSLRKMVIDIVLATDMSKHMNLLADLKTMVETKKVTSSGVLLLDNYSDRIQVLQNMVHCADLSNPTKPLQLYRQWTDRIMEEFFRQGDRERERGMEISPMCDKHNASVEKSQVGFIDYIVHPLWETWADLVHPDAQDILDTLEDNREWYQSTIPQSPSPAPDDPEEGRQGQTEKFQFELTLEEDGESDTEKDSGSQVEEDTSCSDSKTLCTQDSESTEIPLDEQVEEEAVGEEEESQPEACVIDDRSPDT

COc1ccc(CC23OCC(C)(CO2)CO3)cc1-c1cccc([N+](=O)[O-])c1
IC50 [1]: 5 to 20 µM | IC50 [2]: < 5 µM

Source: patent publication US8791267B2, “Biaryl PDE4 inhibitors for treating inflammatory, cardiovascular and CNS disorders” (Decode Genetics EHF, priority 2007, dated 2014)
